These results are taken from ChEMBL document CHEMBL3822426, “A cascade screening approach for the identification of Bcr-Abl myristate pocket binders active against wild type and T315I mutant” (Bioorg Med Chem Lett, 2016).

The test system of assay [1] is Tyrosine-protein kinase ABL1 (Homo sapiens), P00519 [T315I]. To be noted: Sf21, 50 uM.
The target in assay [2] is Tyrosine-protein kinase ABL1 (Homo sapiens) (UniProt P00519). To be noted: 25 uM.
For assay [3], the system named is Tyrosine-protein kinase ABL1 (Homo sapiens), P00519 [T315I]. To be noted: Sf21, 100 uM.
The target in assay [4] is Tyrosine-protein kinase ABL1 (Homo sapiens) (UniProt P00519). The following applies: 100 uM.
The target is the same in assay [5]. The following applies: 50 uM.
Assay [6] concerns Tyrosine-protein kinase ABL1 (Homo sapiens), P00519 [T315I]. The following applies: Sf21, 25 uM.

As for `C(=C\n1ncc2c(N3CCCCCC3)ncnc21)/c1ccccc1`, the Vmax(app) in assay [1] is 10.3 pmol/min; in assay [2] it was 8.2 pmol/min; in assay [3], 6.3 pmol/min; in assay [4], 3.66 pmol/min; in assay [5] it was 3.6 pmol/min; in assay [6] it was 16.1 pmol/min.
